# Antibody variant affinities, Ab-14 heavy chain, assay B

Values reported by Li et al. 2023, doi:10.1038/s41467-023-39022-2 (FLAb copy).

Target: peptide PDVDLGDISGINAS, taken from heptad repeat 2 (HR2) of SARS-CoV-2 spike.

Parent: Ab-14, a human scFv built as VH, a 15-residue (Gly4Ser)3 linker, VL. Only the CDRs of the heavy chain vary.
VH: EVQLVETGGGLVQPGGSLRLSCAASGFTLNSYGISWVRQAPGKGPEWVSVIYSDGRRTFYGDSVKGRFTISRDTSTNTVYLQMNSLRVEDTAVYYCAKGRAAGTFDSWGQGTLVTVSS
VL: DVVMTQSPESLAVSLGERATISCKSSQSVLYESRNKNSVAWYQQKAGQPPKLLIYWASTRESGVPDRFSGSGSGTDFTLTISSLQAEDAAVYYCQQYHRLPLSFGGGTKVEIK

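Phage display of a naive human antibody library on the peptide gave the parent. Designed CDR sequences, proposed from the first random library and measured here. Their group label is 14H_GP_HC (GP: Gaussian process model; HC: hill climbing; a sequence that several methods proposed may carry one label only). Affinity was read by AlphaSeq, a pooled yeast mating assay with surface-displayed partners. Pairs that bind mate more often; barcode pairs of the diploids are counted by sequencing. The ratio of observed to expected reads was calibrated, replicate by replicate, on BCL2-family standards whose Kd was known from biolayer interferometry. The assay was run in six technical replicates.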

Changes read parent residue, position, new residue, counted from the first residue of the VH shown.
Affinities are written as log10 Kd with Kd in nM; a lower number is a better binder.
A mean of the replicates is given; it leaves out those without a signal.
"nd" marks a missing value. The strain was present, yet no cells mated with the target were sequenced in that replicate, which points to weak or no binding.
In the paper, a design with two or fewer of six values counts as a poor binder.
A sequence measured in both rounds can read differently, since the two assays cover different ranges.
Three control strains display no target. For all heavy chain designs, 1% of the pairings with them gave a signal, with a median of 2.08 and one signal in twenty below 0.84, so weak values seen in few replicates may be background. Also given: how often the same scFv was detected with the empty control strains, with their mean in brackets.

| changes | log10 Kd, replicates | mean log10 Kd (nM) | empty controls |
|---|---|---|---|
| G61S A101L S107R | nd / nd / 0.36 / 3.20 / 2.24 / 1.07 | 1.72 | 0/18 |
| T28C S31D G61A S107T | 1.36 / 1.15 / 1.79 / 1.08 / 1.05 / 2.41 | 1.47 | 0/18 |
| G26K G61T R100Q A101T | nd / nd / nd / 0.64 / nd / nd | 0.64 | 0/18 |
| G26D G61D R100Q A101E | nd / nd / nd / nd / nd / nd | nd | 0/18 |
| S31D F59W G61M | nd / 1.22 / nd / nd / 0.26 / 2.89 | 1.46 | 1/18 (0.87) |
| T28Q G61I A101I | nd / nd / nd / nd / nd / nd | nd | 0/18 |
| N30D G61D R100H A101L | 0.50 / 0.47 / 0.39 / 0.59 / 0.73 / 0.32 | 0.50 | 0/18 |
| T28Q S31E G61H T104F | nd / 2.51 / nd / nd / nd / nd | 2.51 | 0/18 |
| S31E G103E S107L | nd / nd / nd / nd / nd / nd | nd | 0/18 |
| F27N S31E A101T S107G | 1.48 / 0.65 / 0.93 / 1.13 / 1.44 / 1.88 | 1.25 | 1/18 (1.65) |
| T28G S31E G61T A101E S107V | -0.42 / -0.18 / -0.33 / -0.93 / -0.25 / -0.83 | -0.49 | 0/18 |
| S31E G61D A101C | 1.21 / 2.30 / 0.96 / 1.19 / 1.31 / 1.14 | 1.35 | 0/18 |
| T28C S31D G61A S107K | nd / 2.26 / 1.97 / 1.12 / 2.29 / nd | 1.91 | 0/18 |
| S31M F59Q G61A | 2.41 / 2.01 / 1.60 / 1.78 / nd / 1.40 | 1.84 | 0/18 |
| S31E A101F S107G | nd / nd / nd / nd / nd / nd | nd | 0/18 |
| T28W S31E G61H S107V | 1.80 / 0.93 / 2.28 / 0.94 / 1.81 / 1.11 | 1.48 | 2/18 (2.82) |
| S31E G61Q S107Q | 0.68 / 0.54 / 0.63 / 0.61 / 0.69 / 0.52 | 0.61 | 0/18 |
| T28D F59A G61H | 0.07 / -0.37 / -0.03 / 0.08 / 0.09 / 0.04 | -0.02 | 0/18 |
| S31E G61S S63A A101S | nd / 2.85 / 0.98 / 2.15 / 0.71 / 1.09 | 1.56 | 0/18 |
| L29I G61S R100Q A102G | nd / 1.56 / 2.83 / 1.65 / 2.40 / 1.28 | 1.94 | 0/18 |
| S31E A101N S107A | 0.24 / -0.44 / -0.56 / -0.24 / -0.48 / -0.05 | -0.25 | 0/18 |
| S31E G61H D106M | nd / nd / nd / nd / nd / nd | nd | 0/18 |
| T28G S31E G61H S63D A101T | 0.04 / -0.19 / -0.11 / -0.24 / -0.09 / 0.04 | -0.09 | 3/18 (2.82) |
| T28Q G61Q R100H | 1.40 / 1.87 / nd / 2.06 / 2.19 / 1.41 | 1.79 | 0/18 |
| T28D A101Q T104I | nd / nd / nd / nd / 1.94 / nd | 1.94 | 0/18 |
| S53A R100E D106K S107Y | -0.11 / nd / 0.81 / 0.36 / 0.33 / -0.12 | 0.25 | 0/18 |
| G26H S31E G61R A101T | nd / nd / nd / nd / nd / nd | nd | 0/18 |
| T28Q S31E G61T A101T | 1.09 / 0.53 / 1.00 / 1.20 / 0.68 / 0.43 | 0.82 | 0/18 |
| T28D G61I S107I | 0.72 / 0.43 / 0.66 / 0.68 / 0.50 / 0.51 | 0.58 | 0/18 |
| G26R G61I A101V | nd / 1.29 / nd / 1.86 / nd / 1.74 | 1.63 | 1/18 (1.49) |
| S31N G61D R100Q A101V | nd / 1.42 / nd / nd / nd / 1.58 | 1.50 | 0/18 |
| T28D S31D A101I | nd / nd / nd / nd / nd / nd | nd | 0/18 |
| F27E S53A G61H | 0.29 / 0.52 / 0.72 / 0.57 / 0.44 / 0.69 | 0.54 | 1/18 (2.33) |
| S53A R100Q D106K S107M | nd / nd / nd / nd / nd / nd | nd | 0/18 |
| T28S S31E G61Q A101N | -0.07 / -0.27 / -0.03 / -0.28 / -0.47 / -0.12 | -0.21 | 0/18 |
| S31D G61I A102V | nd / nd / nd / nd / nd / nd | nd | 1/18 (0.61) |
| T28D S107M | 0.93 / 0.91 / 0.56 / 0.82 / 1.50 / 0.57 | 0.88 | 0/18 |
| G61S R100M A102G S107Q | -0.17 / -0.04 / -0.02 / -0.44 / -0.27 / 0.49 | -0.08 | 1/18 (1.59) |
| G26K S31E S107Q | nd / nd / nd / 1.98 / nd / nd | 1.98 | 0/18 |
| S31E S63R G103V S107M | nd / nd / nd / nd / nd / nd | nd | 0/18 |
| T28H F59A G61Q | 1.56 / 0.57 / 1.48 / 1.83 / 0.93 / 1.24 | 1.27 | 1/18 (2.15) |
| S31E T104S D106T S107T | nd / nd / nd / nd / nd / nd | nd | 0/18 |
| G61S R100E A102G S107F | 1.58 / 1.31 / 1.06 / nd / nd / 1.42 | 1.34 | 0/18 |
| G26H N30E S53A | 0.68 / nd / 1.79 / 2.03 / 1.76 / 1.19 | 1.49 | 0/18 |
| G61D S63D R100Q A101T | nd / nd / nd / 1.94 / 2.27 / 1.70 | 1.97 | 0/18 |
| S53A R100T D106K S107M | nd / nd / nd / nd / nd / nd | nd | 0/18 |
| S31E G61E S63D A101N | 0.72 / 0.70 / 0.61 / 0.83 / 0.37 / 0.63 | 0.64 | 0/18 |

Picked from the list: the 7 lowest averages where every replicate gave a value.

{"changes": "T28G S31E G61T A101E S107V", "log10 Kd, replicates": "-0.42 / -0.18 / -0.33 / -0.93 / -0.25 / -0.83", "mean log10 Kd (nM)": "-0.49", "empty controls": "0/18"}
{"changes": "S31E A101N S107A", "log10 Kd, replicates": "0.24 / -0.44 / -0.56 / -0.24 / -0.48 / -0.05", "mean log10 Kd (nM)": "-0.25", "empty controls": "0/18"}
{"changes": "T28S S31E G61Q A101N", "log10 Kd, replicates": "-0.07 / -0.27 / -0.03 / -0.28 / -0.47 / -0.12", "mean log10 Kd (nM)": "-0.21", "empty controls": "0/18"}
{"changes": "T28G S31E G61H S63D A101T", "log10 Kd, replicates": "0.04 / -0.19 / -0.11 / -0.24 / -0.09 / 0.04", "mean log10 Kd (nM)": "-0.09", "empty controls": "3/18 (2.82)"}
{"changes": "G61S R100M A102G S107Q", "log10 Kd, replicates": "-0.17 / -0.04 / -0.02 / -0.44 / -0.27 / 0.49", "mean log10 Kd (nM)": "-0.08", "empty controls": "1/18 (1.59)"}
{"changes": "T28D F59A G61H", "log10 Kd, replicates": "0.07 / -0.37 / -0.03 / 0.08 / 0.09 / 0.04", "mean log10 Kd (nM)": "-0.02", "empty controls": "0/18"}
{"changes": "N30D G61D R100H A101L", "log10 Kd, replicates": "0.50 / 0.47 / 0.39 / 0.59 / 0.73 / 0.32", "mean log10 Kd (nM)": "0.50", "empty controls": "0/18"}